# Experimental data taken from US12076341B2, “Use of apoptotic compensatory proliferation signaling vesicles in tissue repair and wound healing” (Rush University Medical Center, priority 2018, dated 2024).
# System: Hela cells
# Assay: Necrotic cell death of HeLa cells: vesicle production and CPS
# Conditions: treatment with 0.5 mM MNNG
smiles,measurement,setting,value
CN(N=O)C(=N)N[N+](=O)[O-],production of Crkl-containing ACPSVs by necrotic HeLa cells,,did not produce
same,compensatory proliferation in adherent Hela cells by 16K fraction of necrotic cells,cell counts 24 h,failed to induce compensatory proliferation
